{"source": "ChEMBL document CHEMBL1159185", "about": "“Metabolism and structure activity data based drug design: discovery of () SCH 53079 an analog of the potent cholesterol absorption inhibitor () SCH 48461” (1996)", "tested_on": "Cricetinae gen. sp.", "test": "Compound was evaluated for the reduction of liver cholesterol ester levels in the cholesterol-fed Hamster model", "data": [{"smiles": "COc1ccc([C@@H]2[C@@H](CCCc3ccccc3)C(=O)N2c2ccc(OC)cc2)cc1", "values": [{"measurement": "ED50", "result": 2.2, "unit": "mg/kg"}]}]}
